The values that follow come from ChEMBL document CHEMBL6103593, “Design of Selective BRD4 Inhibitors for the Treatment of Autosomal Dominant Polycystic Kidney Disease” (J Med Chem, 2025).

Amino acid sequences for entries named in this document (tags omitted). A change or cut given only in a name is not applied to a line headed by its entry.
UniProt P08069, whole entry, looked up: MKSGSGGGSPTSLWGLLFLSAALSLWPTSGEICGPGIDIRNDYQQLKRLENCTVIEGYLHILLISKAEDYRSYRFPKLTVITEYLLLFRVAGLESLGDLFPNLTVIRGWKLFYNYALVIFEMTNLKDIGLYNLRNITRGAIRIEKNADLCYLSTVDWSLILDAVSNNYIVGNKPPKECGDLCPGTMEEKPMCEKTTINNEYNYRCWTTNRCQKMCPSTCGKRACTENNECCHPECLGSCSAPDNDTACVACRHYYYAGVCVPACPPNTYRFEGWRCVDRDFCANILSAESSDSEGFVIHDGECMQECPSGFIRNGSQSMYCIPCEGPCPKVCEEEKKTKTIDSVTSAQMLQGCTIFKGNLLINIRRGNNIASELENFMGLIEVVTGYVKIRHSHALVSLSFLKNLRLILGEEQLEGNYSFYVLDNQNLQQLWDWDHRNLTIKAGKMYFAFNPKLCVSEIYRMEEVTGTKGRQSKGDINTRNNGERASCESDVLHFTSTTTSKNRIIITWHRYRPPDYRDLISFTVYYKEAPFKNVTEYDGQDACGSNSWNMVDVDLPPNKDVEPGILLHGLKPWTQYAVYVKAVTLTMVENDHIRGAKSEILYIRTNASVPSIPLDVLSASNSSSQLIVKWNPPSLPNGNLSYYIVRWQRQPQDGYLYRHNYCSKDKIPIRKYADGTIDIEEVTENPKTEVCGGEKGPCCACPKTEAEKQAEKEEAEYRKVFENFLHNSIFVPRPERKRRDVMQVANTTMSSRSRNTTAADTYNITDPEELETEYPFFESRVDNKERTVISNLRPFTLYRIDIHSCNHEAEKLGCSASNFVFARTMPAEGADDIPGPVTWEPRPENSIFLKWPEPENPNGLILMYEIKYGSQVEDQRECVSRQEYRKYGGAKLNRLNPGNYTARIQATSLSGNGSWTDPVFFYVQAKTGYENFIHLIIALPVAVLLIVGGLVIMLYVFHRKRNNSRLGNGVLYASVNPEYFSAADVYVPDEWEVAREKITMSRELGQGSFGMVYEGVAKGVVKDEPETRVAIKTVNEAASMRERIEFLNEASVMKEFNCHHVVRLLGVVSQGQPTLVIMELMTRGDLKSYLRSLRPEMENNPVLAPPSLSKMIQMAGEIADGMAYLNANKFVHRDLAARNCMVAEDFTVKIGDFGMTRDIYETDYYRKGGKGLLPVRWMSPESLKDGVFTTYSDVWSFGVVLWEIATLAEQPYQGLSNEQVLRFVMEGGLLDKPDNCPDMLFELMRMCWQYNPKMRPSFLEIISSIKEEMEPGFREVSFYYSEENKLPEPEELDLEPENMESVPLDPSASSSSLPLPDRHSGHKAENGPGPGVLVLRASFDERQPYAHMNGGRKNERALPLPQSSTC
UniProt P07948: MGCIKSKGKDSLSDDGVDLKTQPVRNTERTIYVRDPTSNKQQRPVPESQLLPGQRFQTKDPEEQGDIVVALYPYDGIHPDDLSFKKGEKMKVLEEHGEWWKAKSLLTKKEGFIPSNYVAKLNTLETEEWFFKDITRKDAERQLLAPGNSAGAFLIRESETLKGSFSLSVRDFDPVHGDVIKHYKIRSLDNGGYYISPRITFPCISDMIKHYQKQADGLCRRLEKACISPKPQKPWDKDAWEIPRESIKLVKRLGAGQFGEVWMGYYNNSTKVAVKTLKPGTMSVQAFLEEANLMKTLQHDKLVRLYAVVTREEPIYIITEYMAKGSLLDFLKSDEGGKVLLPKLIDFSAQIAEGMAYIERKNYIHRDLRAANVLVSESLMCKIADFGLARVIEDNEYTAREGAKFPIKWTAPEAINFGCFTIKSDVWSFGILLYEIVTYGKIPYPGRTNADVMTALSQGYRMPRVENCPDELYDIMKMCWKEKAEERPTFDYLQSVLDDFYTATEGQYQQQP
UniProt P35968, whole entry: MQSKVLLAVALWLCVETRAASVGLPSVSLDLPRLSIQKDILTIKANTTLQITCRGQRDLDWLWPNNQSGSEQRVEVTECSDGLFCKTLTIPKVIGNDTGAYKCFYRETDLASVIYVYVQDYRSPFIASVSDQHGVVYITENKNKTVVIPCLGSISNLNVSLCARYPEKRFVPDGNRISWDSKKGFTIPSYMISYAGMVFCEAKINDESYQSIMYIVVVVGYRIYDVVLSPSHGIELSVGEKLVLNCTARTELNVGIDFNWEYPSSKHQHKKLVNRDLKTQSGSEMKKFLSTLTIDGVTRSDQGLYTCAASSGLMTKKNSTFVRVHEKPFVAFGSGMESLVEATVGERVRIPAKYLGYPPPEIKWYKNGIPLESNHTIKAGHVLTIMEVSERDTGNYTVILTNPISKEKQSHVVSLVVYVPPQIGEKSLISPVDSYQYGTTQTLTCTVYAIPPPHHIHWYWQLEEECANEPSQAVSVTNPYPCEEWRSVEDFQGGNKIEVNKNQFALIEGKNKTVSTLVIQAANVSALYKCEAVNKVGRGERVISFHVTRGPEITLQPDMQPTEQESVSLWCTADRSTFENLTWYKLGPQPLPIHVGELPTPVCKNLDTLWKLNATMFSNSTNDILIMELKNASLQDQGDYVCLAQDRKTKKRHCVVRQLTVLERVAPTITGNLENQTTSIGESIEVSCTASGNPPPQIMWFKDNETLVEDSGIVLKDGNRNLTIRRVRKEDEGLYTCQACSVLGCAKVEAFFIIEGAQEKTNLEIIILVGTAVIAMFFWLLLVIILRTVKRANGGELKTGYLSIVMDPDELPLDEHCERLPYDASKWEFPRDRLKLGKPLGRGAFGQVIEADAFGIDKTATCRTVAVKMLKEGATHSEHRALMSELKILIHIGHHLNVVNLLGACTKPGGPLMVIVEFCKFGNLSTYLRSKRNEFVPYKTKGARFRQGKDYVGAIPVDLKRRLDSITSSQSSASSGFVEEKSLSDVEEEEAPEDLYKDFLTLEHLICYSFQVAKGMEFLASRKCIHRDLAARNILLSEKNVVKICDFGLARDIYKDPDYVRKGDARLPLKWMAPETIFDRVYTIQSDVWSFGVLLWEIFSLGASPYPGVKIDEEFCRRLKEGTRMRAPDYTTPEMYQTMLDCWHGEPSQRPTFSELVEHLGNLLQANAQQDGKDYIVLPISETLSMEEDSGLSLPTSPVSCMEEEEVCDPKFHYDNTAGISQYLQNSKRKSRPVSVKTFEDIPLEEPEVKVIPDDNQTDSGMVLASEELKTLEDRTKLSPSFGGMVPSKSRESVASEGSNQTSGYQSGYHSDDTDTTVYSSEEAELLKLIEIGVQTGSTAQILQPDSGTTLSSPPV
UniProt P19784, whole entry, looked up: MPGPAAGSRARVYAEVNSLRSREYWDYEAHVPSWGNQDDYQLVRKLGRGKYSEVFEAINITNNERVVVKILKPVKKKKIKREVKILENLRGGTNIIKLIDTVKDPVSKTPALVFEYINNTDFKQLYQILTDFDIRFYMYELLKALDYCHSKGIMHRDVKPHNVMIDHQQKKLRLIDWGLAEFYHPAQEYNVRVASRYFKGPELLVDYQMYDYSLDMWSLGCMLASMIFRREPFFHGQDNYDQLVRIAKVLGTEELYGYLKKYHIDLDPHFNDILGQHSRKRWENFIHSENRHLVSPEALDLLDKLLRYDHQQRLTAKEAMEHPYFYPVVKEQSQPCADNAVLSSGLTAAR

Experiment [1] deals with T1, Bromodomain-containing protein 4 (Homo sapiens, UniProt O60885). Nature of the experiment: Inhibition of BRD4 bromodomain 1 (44 to 168 residues) (unknown origin) extracted from Escherichia coli BL21 (D3) codon plus RIL cells at 1 uM incubated for 4 hrs by fluorescence anisotropy relative to control. (Fluorescence polarisation rises when a labelled molecule tumbles more slowly, as on binding a larger partner.)

The target of experiment [2] is T1, Bromodomain-containing protein 4. The experiment can be described thus: Inhibition of BRD4 bromodomain 2 (332 to 460 residues) (unknown origin) extracted from Escherichia coli BL21 (D3) codon plus RIL cells at 1 uM incubated for 4 hrs by fluorescence anisotropy relative to control.
The target of experiment [3] is Insulin-like growth factor 1 receptor (Homo sapiens) (UniProt P08069). The experiment can be described thus: Inhibition of human IGF-1R at 1 uM relative to control.
The target in experiment [4] is Tyrosine-protein kinase Lyn (Homo sapiens) (UniProt P07948). The experiment can be described thus: Inhibition of human Lyn at 1 uM relative to control.
The target in experiment [5] is Vascular endothelial growth factor receptor 2 (Homo sapiens) (UniProt P35968). The experiment can be described thus: Inhibition of human KDR at 1 uM relative to control.
In experiment [6] the target is Dual specificity mitogen-activated protein kinase kinase 1 (Homo sapiens) (UniProt Q02750). The experiment can be described thus: Inhibition of human MEK1 (unknown origin) at 1 uM relative to control.
The target in experiment [7] is Casein kinase II subunit alpha' (Homo sapiens) (UniProt P19784). Nature of the experiment: Inhibition of human CK2alpha2 (unknown origin) at 1 uM relative to control.

SMILES strings stand for the structures.

For orientation: inhibition means how much of the control response was suppressed. For the compound `CCn1nc(Nc2cccc(Nc3ccc4c(c3)N(C(C)C)[C@H](C)C(=O)N4C)c2)c2ccccc21`, the inhibition in experiment [1] was determined as 46.2%; in experiment [2] it was 58.2%.
On to `CC(C)N1c2cc(Nc3nccc(Nc4nn(C)c5ccccc45)n3)ccc2N(C)C(=O)[C@H]1C`, for which the inhibition in experiment [3], in experiment [4] and in experiment [5] was more than 30% each time.
Consider `CC(C)N1c2cc(Nc3cccc(Nc4nn(C5CC5)c5ccccc45)c3)ccc2N(C)C(=O)[C@H]1C`, for which the inhibition in experiment [1] was 20.1%; in experiment [2] it was 60.5%.
`CCc1cc(Nc2nn(C)c3ccccc23)nc(Nc2ccc3c(c2)N(C(C)C)[C@H](C)C(=O)N3C)n1`: the inhibition in experiment [6] and in experiment [7] was 10% in each case.
In the case of `CC(C)N1c2cc(Nc3cccc(Nc4nn(C)c5ccccc45)c3)ccc2N(C)C(=O)[C@H]1C`, the inhibition in experiment [1] was 47.7%; in experiment [2], 64.8%.
Turning to `CC(C)N1c2cc(Nc3cccc(Nc4nn(C(C)C)c5ccccc45)c3)ccc2N(C)C(=O)[C@H]1C`, the inhibition in experiment [1] worked out at 17.7%; in experiment [2], 43.1%.
